Assay results taken from paper PMC6706427.

Target: Flag-CLIC4-Y104A (dog)
Assay: co-IP; lysates of co-transfected 293T cells in RIPA buffer plus 0.5% CHAPS; anti-Flag or control antibody; Protein-G Dynabeads; 4 °C overnight; 4 washes; blots quantified with the Odyssey system, three independent repeats

percent reduction of co-precipitation against Flag-CLIC4 wild type: 56 % less
Substance: MMP14-mCherry (from UniProt P50281 112-582) (natural protein)
